Test system: red blood cells
Experiment: Red blood cell hemolysis assay (PLC, MLC)
Format: cell-based

O=C(O)c1cn(C2CC2)c2cc(N3CCNCC3)c(F)cc2c1=O [Ciprofloxacin, reference compound]
Hemolysis PLC (concentration that led to 50% red blood cell lysis): >1 µg/mL | Hemolysis MLC (concentration that led to 100% red blood cell lysis): >1 µg/mL | Hemolysis MLC (mean lytic concentration): >1 µg/mL | Hemolysis PLC (partial lytic concentration, the concentration at which any hemolysis is observed): 1 µg/mL | Hemolysis MLC/MIC (ratio): >4 | Hemolysis PLC/MIC (ratio): >4 | MLC/MIC (ratio of mean lytic concentration to MIC): >8 | PLC/MIC (ratio of partial lytic concentration to MIC): 8
